SMILES strings stand for the structures.

The assay deals with MV-4-11 cells. Put plainly: MV-4-11 cell proliferation inhibition (MTS assay). Type of assay: cell-based. The conditions noted are these: Homo sapiens, MV4-11, reference compounds, read-out: cell growth inhibitory activity (IC50). On the procedure: MV-4-11 cells were cultured in IMDM medium supplemented with 10% fetal bovine serum and collected. The cell concentration was diluted according to a 7-day incubation period, and 180 µL of cell suspension was added to each well of a 96-well plate, resulting in 2,000 cells per well. […] The test compounds were prepared from a 10 mM stock solution and serially diluted in a five-fold gradient, and 20 µL of the diluted compound solution was added to each compound-treated well (final DMSO concentration 0.2%). The cells were incubated in a 37 °C, 5% CO2 incubator for 7 days. After incubation, the reaction solution was prepared according to the MTS assay kit instructions (Promega, G5430), and 20 µL was added to each well. The plate was further incubated at 37 °C with 5% CO2 for 3-4 hours. The absorbance at 490 nm was measured using a microplate reader, and the absorbance at 690 nm was used as the background value. The final raw data were calculated as OD490 - OD690. […] The IC50 values for cell proliferation inhibition were determined using GraphPad Prism 5.0. Each experiment was repeated three times, and three parallel replicates were performed in each experiment to calculate the mean value and standard deviation.
Table 3. Inhibitory Activity of Compounds on MV-4-11 Cell Proliferation
For orientation: Formazan colour is commonly taken as a measure of viable cells.

For `Nc1cccc2c1CN(C1CCC(=O)NC1=O)C2=O` (stereo not shown) [Lenalidomide, reference compound], the IC50 is greater than 20 µM.

The term IC50 denotes the concentration at which inhibition is half-maximal.

For the origin of these results see EP4778920A1, “INDAZOLONE COMPOUND, PREPARATION METHOD THEREFOR, PHARMACEUTICAL COMPOSITION, AND USE” (Shanghai Institute of Materia Medica, Chinese Academy of …, priority 2023, dated 2025).
